Measurements taken from patent publication US11084814B2, “Pyrido[3, 4-d]pyrimidine derivative and pharmaceutically acceptable salt thereof” (Teijin Pharma Limited, priority 2016, dated 2021).

The chains behind the UniProt entries cited, without tags or fusion partners.
UniProt P11802, whole entry: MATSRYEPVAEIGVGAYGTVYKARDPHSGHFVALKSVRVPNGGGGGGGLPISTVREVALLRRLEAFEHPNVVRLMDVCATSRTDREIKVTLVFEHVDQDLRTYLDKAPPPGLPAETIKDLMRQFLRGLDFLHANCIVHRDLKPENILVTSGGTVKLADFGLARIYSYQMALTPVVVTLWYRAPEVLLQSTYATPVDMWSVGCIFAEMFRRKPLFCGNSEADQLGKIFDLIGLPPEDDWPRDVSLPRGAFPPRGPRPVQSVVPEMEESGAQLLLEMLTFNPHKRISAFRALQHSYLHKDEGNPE
UniProt P30281, whole entry partner: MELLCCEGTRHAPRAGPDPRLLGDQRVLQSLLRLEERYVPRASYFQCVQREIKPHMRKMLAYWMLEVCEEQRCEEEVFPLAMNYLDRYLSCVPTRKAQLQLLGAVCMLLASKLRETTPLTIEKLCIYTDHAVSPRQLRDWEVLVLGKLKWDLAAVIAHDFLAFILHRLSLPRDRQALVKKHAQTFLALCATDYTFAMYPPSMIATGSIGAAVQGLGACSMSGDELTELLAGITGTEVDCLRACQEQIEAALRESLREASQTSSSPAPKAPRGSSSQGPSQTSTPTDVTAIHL

Columns and labels:
CDK4/cyclin D3 = CDK4/cyclin D3 (Homo sapiens, UniProt P11802); assay: Human CDK4/cyclin D3 inhibitory activity (QS S Assist CDK4/Cyclin D3_FP Kit, IMAP fluorescent polarization); conditions: read-out: CDK4 Activity symbol
Experimental: Human CDK4/Cyclin D3 Inhibitory Activity
(§1) Each compound was analyzed for CDK4/cyclin D3 inhibitory activity with an assay kit (QS S Assist CDK4/Cyclin D3_FP Kit, available from Carna Biosciences, Inc.). This assay kit determines kinase activity on the basis of the IMAP technology by Molecular Devices. Specifically, the kinase activity is determined through quantification of a variation in fluorescent polarization caused by binding of a kinase-phosphorylated fluorescent substance to an IMAP-binding reagent.
Each solution was prepared with the 10× assay buffer attached to the kit or a separately prepared assay buffer having the same composition as the assay buffer attached to the kit. An assay buffer was prepared by 10-fold dilution of the 10× assay buffer with distilled water. The assay buffer contains 20 mM HEPES (pH 7.4), 0.01% Tween20, and 2 mM dithiothreitol. A test compound solution was prepared by dilution of the test compound with dimethyl sulfoxide (DMSO) to a concentration 100 times higher than the final concentration and then 25-fold dilution with the assay buffer to a concentration four times higher than the final concentration. An ATP/substrate/Metal solution was prepared by five-fold dilution of the 5×ATP/substrate/Metal solution attached to the kit with the assay buffer. An enzyme solution was prepared by dilution of the CDK4/cyclin D3 attached to the kit with the assay buffer to a concentration twice higher than the final concentration (final concentration of CDK4/cyclin D3: 12.5 to 25 ng/well). […]
(§2) The test compound solution (5 μL/well) and the ATP/substrate/Metal solution (5 μL/well) were added to a 384-well plate, and the enzyme solution or the assay buffer (10 μL/well) was added to the plate (total amount of the reaction mixture: 20 μL/well) for initiation of enzymatic reaction. […] Subsequently, fluorescent polarization was determined with a microplate reader at an excitation wavelength of 485 nm and an emission wavelength of 535 nm. […]

CDK2/cyclin A2 = CDK2/cyclin A2 (Homo sapiens, UniProt P24941); assay: Human CDK2/cyclin A2 inhibitory activity (QS S Assist CDK2/Cyclin A2_FP Kit, IMAP fluorescent polarization); conditions: read-out: CDK2 Activity symbol
Experimental: Human CDK2/Cyclin A2 Inhibitory Activity
as §1, with “CDK2/cyclin A2” for “CDK4/cyclin D3”, “CDK2/Cyclin A2_FP” for “CDK4/Cyclin D3_FP”
An assay buffer was prepared by 10-fold dilution of the 10× assay buffer attached to the kit with distilled water, and each solution was prepared with the assay buffer. The assay buffer contained 20 mM HEPES (pH 7.4), 0.01% Tween 20, and 2 mM dithiothreitol. A test compound solution was prepared by dilution of the test compound with dimethyl sulfoxide (DMSO) to a concentration 100 times higher than the final concentration and then 25-fold dilution with the assay buffer to a concentration four times higher than the final concentration. An ATP/substrate/Metal solution was prepared by five-fold dilution of the 5×ATP/substrate/Metal solution attached to the kit with the assay buffer. An enzyme solution was prepared by dilution of the CDK2/cyclin A2 attached to the kit with the assay buffer to a concentration twice higher than the final concentration (final concentration of CDK2/cyclin A2: 2.5 ng/well). A detection reagent was prepared by five-fold dilution of 5×IMAP-binding buffer A with distilled water and 400-fold dilution of the IMAP-binding reagent with the diluted buffer.
as §2

IC50 (CDK4/cyclin D3) | IC50 (CDK2/cyclin A2) | SMILES
< 10 nM | > 100 nM | C[C@@H](O)CN1CCN(Cc2ccc(Nc3ncc4cc([C@@H](C)O)nc(N5CCCCC5)c4n3)nc2)CC1
< 10 nM | > 100 nM | C[C@@H](O)c1cc2cnc(Nc3ccc(N4CCNCC4=O)cn3)nc2c(C2CC2)n1
10 to 100 nM | > 100 nM | C[C@@H](O)c1cc2cnc(Nc3ccc(CN4CCN(CCO)CC4)cn3)nc2c(C2CC2)n1
